Earlier results in article PMC10576435.

Target: TRPM2 1355-1368 (Homo sapiens) (UniProt O94759)

For Calmodulin (from UniProt P0DP23), the Kd is listed as 110 nM.
